## Cyclic peptide permeability, from CycPeptMPDB

PAMPA measures passive passage through an artificial lipid membrane.
RRCK is a low-efflux MDCK cell line.
Values are log10 P with P in cm/s, so -5 is more permeable than -7.

The entry for CC(C)C[C@@H]1C(=O)N(C)[C@@H](CC(C)C)C(=O)N(C)[C@H](C)C(=O)N2CCC[C@@H]2C(=O)N(C)[C@@H](Cc2ccc(O)cc2)C(=O)N(C)[C@H](CC(C)C)C(=O)N(C)[C@@H](C)C(=O)N(C)[C@H](CC(C)C)C(=O)N1C lists PAMPA -4.72 (log10 cm/s) and RRCK -5.56 (log10 cm/s). CC(C)C[C@@H]1C(=O)N(C)[C@H](C)C(=O)N(C)[C@@H](CC(C)C)C(=O)N(C)[C@H](CC(C)C)C(=O)N2CCC[C@@H]2C(=O)N(C)[C@@H](Cc2ccc(O)cc2)C(=O)N(C)[C@H](CC(C)C)C(=O)N(C)[C@@H](C)C(=O)N1C is reported with PAMPA -4.62 (log10 cm/s) and RRCK -5.01 (log10 cm/s). The entry for CCCC[C@H]1C(=O)N(C)[C@H](CC)C(=O)N(C)[C@H](C)C(=O)N(C)[C@@H](CCC)C(=O)N(C)[C@H](CC)C(=O)N2CCC[C@@H]2C(=O)N(C)[C@@H](Cc2ccc(O)cc2)C(=O)N(C)[C@H](C)C(=O)N(C)[C@@H](CCC)C(=O)N(C)[C@H](CC)C(=O)N1C lists PAMPA -5.85 (log10 cm/s) and RRCK -6.24 (log10 cm/s). CCCC[C@@H]1C(=O)N(C)[C@@H](CCCC)C(=O)N(C)[C@H](CC)C(=O)N2CCC[C@@H]2C(=O)N(C)[C@@H](Cc2ccc(O)cc2)C(=O)N(C)[C@H](C)C(=O)N(C)[C@@H](CCC)C(=O)N(C)[C@H](CC)C(=O)N(C)[C@@H](CCCC)C(=O)N(C)[C@H](CC)C(=O)N1C is reported with PAMPA -6.10 (log10 cm/s). Listed for CCCC[C@@H]1C(=O)N(C)[C@H](C)C(=O)N(C)[C@@H](CCCC)C(=O)N(C)[C@H](C)C(=O)N2CCC[C@@H]2C(=O)N(C)[C@@H](Cc2ccc(O)cc2)C(=O)N(C)[C@@H](CCC)C(=O)N(C)[C@H](CC)C(=O)N(C)[C@@H](C)C(=O)N1C: PAMPA -6.10 (log10 cm/s) and RRCK -6.21 (log10 cm/s). Listed for CCCC[C@@H]1C(=O)N(C)[C@@H](C)C(=O)N(C)[C@H](C)C(=O)N2CCC[C@@H]2C(=O)N(C)[C@@H](Cc2ccc(O)cc2)C(=O)N(C)[C@H](CC)C(=O)N(C)[C@@H](C)C(=O)N(C)[C@H](C)C(=O)N1C: PAMPA -6.62 (log10 cm/s) and RRCK -6.66 (log10 cm/s).

For CC(C)C[C@@H]1C(=O)N(C)[C@@H](CC(C)C)C(=O)N(C)[C@H](C)C(=O)N2CCC[C@@H]2C(=O)N(C)[C@@H](Cc2ccc(O)cc2)C(=O)N(C)[C@H](C)C(=O)N(C)[C@@H](CC(C)C)C(=O)N(C)[C@H](CC(C)C)C(=O)N1C the data give PAMPA -4.96 (log10 cm/s) and RRCK -5.05 (log10 cm/s).

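Lipid, pH, incubation time, direction and concentration are not recorded in the data file. Other peptides of the study may be missing here. Peptides that the database sets to -10, its floor, are left out.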

Data: CycPeptMPDB; original report Pye et al. 2017, doi:10.1021/acs.jmedchem.6b01483.